Assay results: PubChem BioAssay AID1745857 (National Center for Advancing Translational Sciences (NCATS), 2022)
The entries are a selection whose mix differs from that of the whole data set. Records with an inconclusive call do not appear. Active and inactive are the calls of the source. Calls come from the whole dose curve.

assay: Primary qHTS Assay for Foot and Mouth Disease Virus Antivirals against NCGC Sytravon and CBC Compound Libraries: Renilla Luciferase Signal; settings: FMDV replicon cells; at 114 µM (top of the series) unless noted; note: nearly all actives have a fitted effect of over 55% in size
% is set by controls: 0 for no effect and ±100 for the full control effect.

Row | SMILES | activity change, negative = inhibition
1 | CN(CCCl)CCCl | inactive: -6.13% [at 57.5 µM]
2 | CCC(=O)N(c1ccccc1)C1(COC)CCN(CCc2cccs2)CC1 | inactive: 1.56%
3 | CCC(=O)N(c1ccccc1)C1(COC)CCN(CCn2nnn(CC)c2=O)CC1 | inactive: -4.7%
